Among the data in publication PMC4360375 (Journal of Medicinal Chemistry, 2015) are remaining activity values, retold here.

In this assay the target is T1, rGAT1 (Rattus norvegicus, UniProt P23978).
T1 construct: Y prefix of 'YrGAT-1' (own knowledge: yellow fluorescent protein, YFP, fused to rGAT1 in this group's constructs); expressed in transfected cells; host or cells: HEK293
Kind of assay: [3H]-GABA uptake inhibition assay in HEK293 cells stably expressing rGAT1. The conditions noted are these: HEK293, read-out: % uptake (remaining uptake of [3H]-GABA). In kind it is cell-based.

With `N[C@@H](Cc1ccc(Oc2cc(I)c(O)c(I)c2)c(I)c1)C(=O)O` [27d, 3,3',5'-triiodothyronine], the remaining activity at 100 µM is 88.6%.
